Results from US10842814B2, “Use of low dose arsenic for preserving genomic integrity” (Board of Regents of the University of Texas System, priority 2016, dated 2020).

Tests used:
[1] = system: bone marrow cells; assay: Bone marrow protection against Y-90 ibritumomab tiuxetan-induced damage (H&E, γ-H2AX, TUNEL staining); type: in vivo, BALB/c mice; details: 200 μCi Y-90 ibritumomab tiuxetan via tail vein, no LDA
Text: FIG. 1. γ-H2AX and TUNEL staining of bone marrow sections at different time points after Y-90 ibritumomab tiuxetan treatment. Balb/c mice were pretreated with or without low-dose arsenic (LDA) for three days, followed by administration of 200 μCi Y-90 ibritumomab tiuxetan (Y90) via tail vein injection. At the indicated time points, mice were sacrificed by cervical […] and bone marrows were harvested for staining. (A) Quantification of γ-H2AX positive cells. (B) Quantification of TUNEL positive cells in bone marrow sections. *P<0.05, **P<0.01, ***P<0.001.
In addition to our in vitro and in vivo work with LDA in the setting of IR and chemotherapy as described herein, we have also developed a preclinical model to assess the efficacy of LDA as a cytoprotective agent from the bone marrow toxicity of radioimmuno- and radiopharmaceutical therapy using Y-90 ibritumomab tiuxetan as a model. […]
Bone marrow damage was analyzed histologically with hematoxylin and eosin (H&E) staining, DNA DSBs were assessed by γ-H2AX staining and apoptosis was detected by terminal deoxynucleotidyl transferase dUTP nick end labeling (TUNEL) staining. […]

[2] = system: Karpas 422; assay: Mouse xenograft model with CD20 expressing lymphoma cell line, tumor volume; type: in vivo; details: single dose of Y-90 ibritumomab tiuxetan
Method: Treatments were initiated 1 week after implantation when tumors became palpable. Tumor volumes were measured periodically with calipers. Tumor volume was calculated using the equation: volume=length×width×depth×0.5236 […]. Two independent experiments were done and the tumor volumes were expressed as means±SE. In this tumor xenograft model, the tumor volume of the control group continued to increase with time.

B1: Y-90 ibritumomab tiuxetan: an anti-CD20 antibody conjugated to radioactive yttrium used to treat lymphoma (conjugate, chains of the INN, looked up)
heavy: QAYLQQSGAELVRPGASVKMSCKASGYTFTSYNMHWVKQTPRQGLEWIGAIYPGNGDTSYNQKFKGKATLTVDKSSSTAYMQLSSLTSEDSAVYFCARVVYYSNSYWYFDVWGTGTTVTVSAPSVYPLAPVCGDTTGSSVTLGCLVKGYFPEPVTLTWNSGSLSSGVHTFPAVLQSDLYTLSSSVTVTSSTWPSQSITCNVAHPASSTKVDKKIEPRGPTIKPCPPCKCPAPNLLGGPSVFIFPPKIKDVLMISLSPIVTCVVVDVSEDDPDVQISWFVNNVEVHTAQTQTHREDYNSTLRVVSALPIQHQDWMSGKEFKCKVNNKDLPAPIERTISKPKGSVRAPQVYVLPPPEEEMTKKQVTLTCMVTDFMPEDIYVEWTNNGKTELNYKNTEPVLDSDGSYFMYSKLRVEKKNWVERNSYSCSVVHEGLHNHHTTKSFSR
light: QIVLSQSPAILSASPGEKVTMTCRASSSVSYMHWYQQKPGSSPKPWIYAPSNLASGVPARFSGSGSGTSYSLTISRVEAEDAATYYCQQWSFNPPTFGAGTKLELKRADAAPTVFIFPPSDEQLKSGTASVVCLLNNFYPREAKVQWKVDNALQSGNSQESVTEQDSKDSTYSLSSTLTLSKADYEKHKVYACEVTHQGLSSPVTKSFN
modifications: tiuxetan chelator with yttrium-90
damage to bone marrow cells (loss of cellularity) [1]: severe damage to bone marrow cells | tumor growth (tumor volume) [2]: marked tumor growth suppression
